Source: patent US10717799B2, “Copolymers as excipients for effective solubilization of poorly water-soluble substances from solid mixtures” (Dow Global Technologies LLC, priority 2015, dated 2020)

How the values were obtained:
[1] = pH 6.5
[2] = pH 6.5; remark: listed apart in the source

Substance: hydroxypropyl methyl cellulose acetate succinate [HPMCAS]
- solubilized drug concentration after 360 min [1]: ≈ 130 mg/L
- solubilized drug concentration within the first 4 min [1]: above 200 mg/L
- c(30 min) concentration of solubilized Phenytoin [2]: 352 mg/L
- c(90 min) concentration of solubilized Phenytoin [2]: 295 mg/L
- c(180 min) concentration of solubilized Phenytoin [2]: 296 mg/L
